# scFv variants of Ab-14 (light chain) against a SARS-CoV-2 spike peptide

Target: peptide PDVDLGDISGINAS, taken from heptad repeat 2 (HR2) of SARS-CoV-2 spike.

The variants keep the heavy chain, the linker and the frameworks of Ab-14 (scFv order VH, the linker GGGGSGGGGSGGGGS, VL).
VH: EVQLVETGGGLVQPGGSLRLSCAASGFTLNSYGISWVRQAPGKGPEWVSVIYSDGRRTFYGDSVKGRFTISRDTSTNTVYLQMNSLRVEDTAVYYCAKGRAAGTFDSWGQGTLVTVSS
VL: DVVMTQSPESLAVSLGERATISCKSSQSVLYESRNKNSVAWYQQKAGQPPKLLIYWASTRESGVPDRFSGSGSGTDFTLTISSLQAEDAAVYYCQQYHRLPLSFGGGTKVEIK

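Variants in AAYL50 differ from the parent at up to three CDR positions; double and triple changes were sampled at random. The assay is AlphaSeq: two haploid yeast populations carry antibody and antigen on their surface. The frequency of each diploid, read from paired DNA barcodes, reflects how well the two displayed proteins bind. The ratio of observed to expected reads was calibrated, replicate by replicate, on BCL2-family standards whose Kd was known from biolayer interferometry. There are three technical replicates.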

Each variant is given by its three light chain CDRs, as the data file delimits them; those of the parent are KSSQSVLYESRNKNSVA, WASTRES, QQYHRLPLS.
The read-out is the apparent dissociation constant on a log10 scale (nM): the lower, the stronger.
The mean shown is taken over the replicates in which the pair was detected.
A pair that was not seen in that replicate is written "nd"; this usually means weak binding, but a binder can also be missed.
Parent in this assay: reference entry 0.65, copy in this library 1.68.
Three control strains display no target. For library AAYL50, 18% of the pairings with them gave a signal, with a median of 4.19 and one signal in twenty below 2.99, so weak values seen in few replicates may be background. The control count says in how many pairings with the empty strains this scFv gave a signal, with their mean in brackets.

| CDR-L1 | CDR-L2 | CDR-L3 | log10 Kd (nM) by replicate | mean, log10 nM | empty controls |
|---|---|---|---|---|---|
| KSSQSVLYESRPKNSFA | WASTVES | QQYHRLPLS | nd nd nd | nd | 0 of 9 |
| KSSQSVLYWSRNKNSVA | WASTIES | QQYHRLPLG | nd nd nd | nd | 4 of 9 (3.73) |
| KSSQSVLYENRNKNSVI | WASTRES | QQYTRLPLS | nd nd nd | nd | 0 of 9 |
| KSSQSVLYESRNKNSVA | WASQRES | QHYHRLPLS | 3.15 nd 2.47 | 2.81 | 0 of 9 |
| KSSQSILYESRNKIYVA | WASTRES | QQYHRLPLS | nd nd nd | nd | 0 of 9 |
| KSSQSVLYESRNKNSVA | WASTFNS | QQRHRLPLS | nd nd 3.55 | 3.55 | 0 of 9 |
| WSSQSVLYESWNKDSVA | WASTRES | QQYHRLPLS | 4.24 3.43 3.66 | 3.78 | 4 of 9 (4.58) |
| KSSQSVLYRSRNKNSVA | WASCRES | LQYHRLPLS | nd 4.50 4.07 | 4.28 | 5 of 9 (4.65) |
| KSSQSVLYESRNKNSVS | WASTRES | QPYQRLPLS | nd nd nd | nd | 0 of 9 |
| KSSQSVLYLSPNKNSVA | WASTRES | QQYHRLPLA | nd nd nd | nd | 2 of 9 (4.54) |
| KSSQCVLYESRNCNSVA | WASTRES | QQQHRLPLS | 2.63 2.54 2.52 | 2.56 | 5 of 9 (4.43) |
| PSSQSVLYESRNKNSNA | WASTRES | QQYDRLPLS | nd nd 4.37 | 4.37 | 2 of 9 (3.82) |
| KSSQSVLYEHRHKNSVA | WASTRES | QQYHRLPLS | 1.85 2.00 2.05 | 1.96 | 4 of 9 (4.43) |
| KLSQSVLYESRVKNSVA | WASTREY | QQYHRLPLS | nd nd nd | nd | 0 of 9 |
| YSSQSVLYESRNKNSVA | WASTRES | QFYHRLPLY | nd nd nd | nd | 1 of 9 (3.34) |
| KSSQSVAYESRNKNSVA | WSSTRES | QQHHRLPLS | 1.96 1.68 2.28 | 1.97 | 0 of 9 |
| VSSQSVLYESRNKNSVA | WASTRES | YQYPRLPLS | 4.97 nd nd | 4.97 | 1 of 9 (2.94) |
| KSSQSVLYESRNKNSVA | WASTRTS | QQYHRLPMS | 4.11 4.06 2.88 | 3.68 | 0 of 9 |
| KSSQSVLYESRNKNSVA | WASTREF | QQYTRLPQS | nd nd nd | nd | 1 of 9 (2.98) |
| KSSQSVLYESRNKNSVA | WASTCES | QQYHRERLS | nd nd 4.72 | 4.72 | 0 of 9 |
| KVSQSVLYESRNKNSVA | WASTRES | QSYHRLPLY | -0.01 0.35 0.19 | 0.17 | 6 of 9 (4.66) |
| KSSQSVLYESRNKNSVA | WQSTRES | HQYHRLALS | 2.17 2.19 2.34 | 2.23 | 2 of 9 (4.61) |
| KSSQSVLYESRNKNDVR | WASTRES | QQYHRLPLW | nd nd 4.43 | 4.43 | 2 of 9 (4.58) |
| KSSDIVFYESRNKNSVA | WASTRES | QQYHRLPLS | 1.03 1.06 1.14 | 1.07 | 5 of 9 (4.06) |
| KSSQSVLYEYRNKNSVA | WASTRRS | QQYHRLPLS | 3.09 3.30 nd | 3.20 | 1 of 9 (4.43) |
| KSSQSVLYESRNKNSVA | WASTREG | QQYHRLALR | 2.86 2.97 2.14 | 2.66 | 0 of 9 |
| KSSQSVLYESRNKNSVA | PASTREK | QLYHRLPLS | 3.83 nd 5.57 | 4.70 | 4 of 9 (3.75) |
| KSSGSSLYEKRNKNSVA | WASTRES | QQYHRLPLS | 0.80 1.03 1.09 | 0.97 | 2 of 9 (4.27) |
| KSSQSVLYESRNMNSVA | WASTRES | QQLLRLPLS | nd nd nd | nd | 1 of 9 (1.80) |
| KSSQSVLYESRCKNSVA | QASTREW | QQYHRLPLS | 2.11 1.87 2.14 | 2.04 | 7 of 9 (4.23) |
| KSHQSVLYESRNKNSVA | WASTREE | QQYHRLPLS | 2.31 2.35 2.55 | 2.40 | 4 of 9 (4.52) |
| KSTQSVLYESRNKNSVG | WASTRES | QQYHRGPLS | nd nd nd | nd | 1 of 9 (2.56) |
| KSSQSVLYEDRNKNSVA | WASTRFS | QQYHRLPPS | 0.35 0.66 0.50 | 0.50 | 2 of 9 (4.79) |
| KSFQAVSYESRNKNSVA | WASTRES | QQYHRLPLS | 0.84 1.08 1.03 | 0.98 | 5 of 9 (4.31) |
| KSSQSVLYESRNKNSVA | WAFERES | QQNHRLPLS | nd nd 3.55 | 3.55 | 0 of 9 |
| KSSQSVLYESRNGNSVA | WASTRES | WPYHRLPLS | 1.97 nd 1.45 | 1.71 | 0 of 9 |
| KSSQSVLYEPRNKNSVA | WASTREV | QQYHRLPKS | 1.27 1.37 1.56 | 1.40 | 0 of 9 |
| KSSQSVLYESRNKNSVA | MASTVES | QQYHRNPLS | nd nd nd | nd | 0 of 9 |
| KSSQSVLYESRDKNSVN | WASTRFS | QQYHRLPLS | nd nd nd | nd | 0 of 9 |
| KSSQSVLYKSRNKNSVG | WASTRES | QQVHRLPLS | nd nd nd | nd | 0 of 9 |
| KSGQSVLYQSRNKNSVA | SASTRES | QQYHRLPLS | -0.04 0.41 0.12 | 0.16 | 2 of 9 (3.62) |
| KSSQSVLYESRNKNSCG | KASTRES | QQYHRLPLS | nd nd nd | nd | 0 of 9 |

Reference: Engelhart et al. 2022, doi:10.1038/s41597-022-01779-4. File: FLAb, binding data.